Laboratory results taken from patent publication US10208068B2, “Macrocycles as factor XIa inhibitors” (BRISTOL-MYERS SQUIBB COMPANY, priority 2011, dated 2019).

The chains behind the UniProt entries cited, without tags or fusion partners. Residues count along the entry.
UniProt P03951, 388-625 limits assumed: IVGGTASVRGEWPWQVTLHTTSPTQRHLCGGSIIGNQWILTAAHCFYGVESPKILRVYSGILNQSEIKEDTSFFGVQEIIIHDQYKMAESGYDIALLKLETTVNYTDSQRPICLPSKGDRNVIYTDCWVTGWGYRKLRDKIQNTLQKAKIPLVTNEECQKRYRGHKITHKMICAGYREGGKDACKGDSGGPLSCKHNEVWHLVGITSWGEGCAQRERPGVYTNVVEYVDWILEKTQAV
UniProt P03951, 19-387 partner limits assumed: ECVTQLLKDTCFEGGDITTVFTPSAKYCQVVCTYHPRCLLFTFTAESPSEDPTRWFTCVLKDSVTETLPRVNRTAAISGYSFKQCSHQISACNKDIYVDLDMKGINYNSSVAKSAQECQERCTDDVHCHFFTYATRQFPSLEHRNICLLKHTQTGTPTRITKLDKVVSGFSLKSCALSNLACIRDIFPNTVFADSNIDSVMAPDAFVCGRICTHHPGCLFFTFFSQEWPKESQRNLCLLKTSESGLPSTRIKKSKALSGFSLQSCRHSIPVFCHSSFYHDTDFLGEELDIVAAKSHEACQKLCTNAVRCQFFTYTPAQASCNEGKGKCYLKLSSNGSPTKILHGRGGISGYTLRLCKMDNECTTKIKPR

Molecular target: human Factor XIa (Homo sapiens (Human), UniProt P03951)
Test: Factor XIa enzyme inhibition assay (chromogenic substrate S-2366)
Details: read-out: Factor XIa Ki; purified human Factor XIa 25-200 pM, substrate S-2366, 50 mM HEPES pH 7.4

- Ki: < 5 nM
SMILES: Cc1c(C(=O)N[C@H]2CCC[C@@H](C)C(=O)Nc3cc(NC(=O)OCc4ccon4)ccc3-c3ccnc2c3)nnn1-c1cccc(Cl)c1F
